Experiments:
Candida albicans SLU-1 = test: Radial diffusion assay; format: cell-based; conditions: 30 mm^2 area of growth inhibition, calculated by PROBIT analysis
Protocol: In the radial diffusion assay procedures, the CA-1 cultures and derivatized peptide solutions were prepared as in the broth microdilution assay procedure described above, i.e., CA-1 was grown to exponential phase in SDB. Ten (10) mL of molten underlayer agarose comprising 3% Sabouraud Dextrose broth, 1% agarose (Pharmacia, Piscataway, N.J.), 0.02% Tween 20, and 10 mM sodium phosphate at pH 7.4, was added to polystyrene tubes and maintained in a 56° C. water bath until the addition of yeast. Tubes were cooled to approximately 45° C., yeast were added to give a final concentration of 1×10^6 CFU/mL, and the tubes were mixed again by inverting. The contents were poured into leveled, square petri dishes and distributed evenly. […]
Clear zones of growth inhibition around each well were measured with calipers. The actual area of growth inhibition (mm^2) was calculated by subtracting the area of the well. Table II below sets out the results of the radial diffusion assays for a series of tested peptide-based constructs in terms of the number of picomoles (pmol) of compound required to establish a 30 mm^2 area of growth inhibition of Candida albicans SLU-1 calculated by PROBIT analysis (e.g., calculated from regression of the linear portion of log-concentration dose-response curve, log pmol/well vs. net area of inhibition).

[1] = test system: Candida albicans designated CA-1, Strain SLU-1; format: cell-based; conditions: for Broth Microdilution (MIC values in μg/mL C. albicans SLU1): designated CA-1, Strain SLU-1, 24 h
Protocol: In each broth microdilution assay screening procedure, a colony of Candida albicans designated CA-1, Strain SLU-1 that was received from the laboratories of G. Matuschak and A. Lechner, St. Louis University Hospital, St. Louis, Mo., where the strain was maintained, was inoculated into a tube containing 5 mL Sabouraud Dextrose broth (2% dextrose, 1% neopeptone) and incubated at 37° C. with shaking. The overnight culture was diluted 1:50 into 5 ml of fresh broth and incubated for 3 hours at 37° C. to exponential phase growth. Organisms were pelleted by centrifugation in a Beckman J-6M centrifuge for 5 minutes at 3000 rpm (1500×g) and the pellets were resuspended in 5 mL phosphate buffered saline (PBS) and the optical density (OD) at 570 nm was determined. On the basis of the determination that one OD unit equals 3×10^7 colony forming units/mL (CFU/mL), yeast cells were diluted to 5×10^3 CFU/mL in Sabouraud Dextrose broth (SBD).
Derivatized peptide sequences based on Domain III of BPI to be screened which were originally constituted in Dulbecco's-PBS, were two-fold serially diluted in SDB starting from a concentration of 128 μg/mL. Equal volumes (100 μL) of yeast suspension as prepared above and derivatized peptide solution were added to wells of a 96-well sterile, flat bottom, non-pyrogenic tissue culture microtiter plate (Costar, Cambridge, Mass.) to reach a final volume of 200 μL/well. The plate was incubated on a shaker at 37° C. for 24 hours. All assays were performed in triplicate. Following the incubation period, plates were read in an ELISA plate reader at 595 nm wavelength to determine the minimum inhibitory concentration (MIC), i.e., the lowest concentration required to reduce the optical density at 595 nm to below 0.1 OD.

MDCK and CACO-2 cells = format: in vitro ADME
Protocol: For these experiments, peptide-based constructs are screened for potential oral absorption in in vitro screening assays using MDCK and/or CACO-2 cells. Briefly, cultured monolayers of Madin-Derby canine kidney epithelial (MDCK) cells (ATCC Accession No. CCL-34) and/or CACO-2 (Human colon carcinoma) cells [Audus, K. L., et al. Phar. Res., 7:435-451 (1990) are grown upon collagen-coated, permeable-filter supports (Becton Dickinson, Mountain View, Calif.). The cells are grown to confluency and allowed to differentiate (e.g., about 3 days for MDCK cells or about 21 days for CACO-2 cells). The integrity of the monolayers is determined by measuring the transepithelial resistance. […] The transepithelial transport of the construct is measured by quantitative HPLC analysis of the incubation media on the basolateral side of the cells (forward transport). […] In addition, the efflux of the construct is measured by quantitative HLPC analysis of the incubation media on the apical side of the cells. […]
Following the days post seeding, the cells are ready for transport experiments. […]
Forward transport is calculated as the percentage of peptide-based construct in the basolateral chamber (determined by the area under the HPLC peak) to the initial concentration of the apical solution (initial donor concentration of ˜100 μg/mL). […]

Row | Broth Microdilution (MIC values in μg/mL C. albicans SLU1) [1] | MIC range against Candida albicans ([1]; designated CA-1, Strain SLU-1) | mobility in epithelial cell screening assays (MDCK and CACO-2 cells) | MIC range against Staphylococcus aureus (Staphylococcus aureus) | SMILES | Radial Diffusion (pmol to achieve 30 mm^2 zone C. albicans SLU1) (Candida albicans SLU-1)
1 | 4 µg/mL | – | – | – | CC[C@@H](C)[C@@H](NC(=O)[C@@H](CC(C)C)NC(=O)[C@@H](Cc1c[nH]c2ccccc12)NC(=O)[C@@H](CCCCN)NC(C)=O)C(=O)N[C@H](CCC(N)=O)C(=O)N[C@H](CC(C)C)C(=O)N[C@H](Cc1ccccc1)C(=O)N[C@H](Cc1c[nH]cn1)C(=O)N[C@H](CCCCN)C(=O)N[C@H](CCCCN)C(N)=O [XMP.366] | 352 pmol
2 | 2 µg/mL | 0.16 to 2 µg/mL | 0.05 to 0.06% | 4 to 8 µg/mL | CC[C@@H](C)[C@@H](NC(=O)[C@@H](CC(C)C)NC(=O)[C@@H](Cc1c[nH]c2ccccc12)NC(=O)[C@H](N)CCCCN)C(=O)N[C@H](CCC(N)=O)C(=O)N[C@H](CC(C)C)C(=O)N[C@H](Cc1ccccc1)C(=O)N[C@H](Cc1c[nH]cn1)C(=O)N[C@H](CCCCN)C(=O)N[C@H](CCCCN)C(N)=O [XMP.365] | 285 pmol

Source: patent US6355616B1, “Derivative compounds derived from or based on bactericidal/permeability-increasing protein” (priority 1999, dated 2002)
